Reference: PMC3365014 (PLoS ONE, 2012)

How the values were obtained:
[1] = target: T1, p53 C-terminal domain (p53CTD, residues 293–393) (UniProt P04637 293-393); assay: fluorescence polarisation; fluorescence anisotropy; p53CTD titrated into 100 nM fluorescein-labeled peptide; 20 mM sodium phosphate pH 7.2, 13.5 mM NaCl, 10°C; 5 mM β-mercaptoethanol for peptides with cysteine; single-site 1:1 model; Kd in µM tetramer; settings: both partners purified
T1 construct: p53 C-terminal domain, residues 293–393; 15N-labeled for NMR; also called p53(293–393); full length p53CTD; source: E. coli (C41 for the 15N-labeled protein), purified as described [23]

[2] = target: T1, p53 C-terminal domain (p53CTD, residues …); assay: peptide or protein array; Celluspots peptide array, peptides immobilised; 20 µM p53CTD in 1% milk in TBS-T (50 mM Tris pH 7.5, 110 mM NaCl, 0.05% Tween 20), overnight at 4°C; detected with FL-393 anti-p53 antibody; settings: both partners purified

B1: Wmot2(266–280), fluorescein-labeled (peptide)
peptide: WSTNGDTFLGGEDFDQ
modifications: fluorescein (5(6)-carboxyfluorescein) on the N-terminus; C-terminal amide
notes: single tryptophan added at the N-terminus; Mortalin-2 (hsp70 family member), residues 266–280; source: synthetic peptide (Fmoc, HPLC-purified)
Kd [1]: 41 µM

B2: PKCα(281–295), peptide on the array (peptide)
peptide: EEGEYYNVPIPEGDE
notes: Immobilised on the array; source: bought: Intavis Celluspots peptide array
binding result [2]: binds
